Drawing on patent publication US9018381B2, “Chemical compounds” (AstraZeneca AB, priority 2010, dated 2015), this text covers IC50 for one compound.

Protein sequences, listed by entry. Tags and fused reporters are not part of them. Residues count along the entry.
UniProt Q07817, 1-209: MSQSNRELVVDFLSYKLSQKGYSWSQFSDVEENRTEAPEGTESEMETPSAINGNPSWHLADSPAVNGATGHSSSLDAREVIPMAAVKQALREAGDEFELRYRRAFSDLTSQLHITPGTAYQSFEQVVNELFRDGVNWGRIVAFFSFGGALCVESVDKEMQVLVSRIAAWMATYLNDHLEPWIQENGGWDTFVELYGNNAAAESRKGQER

For the assay, the target named is Bcl-XL (Homo sapiens (Human), UniProt Q07817). Put plainly: Bcl-XL FP assay (fluorescence polarization competitive binding). The note with it: C-terminal 6×HIS tagged Bcl-XL (aa 1-209), FITC-Bim BH-3 peptide tracer. An excerpt:
Bcl-xL and Bcl-2 FP binding affinity of compound(s) of Formulae (I), (I-a), (I-b), (I-c), (I-d) and/or (I-e) may be determined using a variety of known methods. One such assay is a sensitive and quantitative in vitro binding assay using fluorescence polarization (“FP”) described by Wang, J.-L.; Zhang, Z-J.; Choksi, S.; Sjam. S.; Lu, Z.; Croce, C. M.; Alnemri, E. S.; Komgold, R.; Huang, Z. Cell permeable Bcl-2 binding peptides: a chemical approach to apoptosis induction in tumor cells. Cancer Res. 2000, 60, 1498-1502).
Additionally, the binding affinity of compound(s) of Formulae (I), (I-a), (I-b), (I-c), (I-d) and/or (I-e) to Bcl-2 protein in vitro was determined by a competitive binding assay based on fluorescence polarization. For example, fluorescence polarization (“FP”) assays may be developed using a c-terminal 6×HIS tagged Bcl-2 (aa 1-204) and a C-terminal 6×HIS tagged Bcl-XL (aa 1-209). The tracer may be a synthetic peptide BH-3 peptide Bim conjugated to Fluorescein isothiocyanate (FITC—[…]). […] Samples may be read after 20-minute incubation. Fluorescence polarization values may be plotted as a function of the antagonist concentration.
When tested in an FP assay based on the FP assay described above, the inhibitory activity of the following examples were measured at the IC50s (μM) shown in Table 1.

By IC50 is commonly meant the point on the concentration scale where inhibition reaches its midpoint. The compound `N#C[C@@H](c1ccccc1-c1ccc(Cl)cc1)C1CCN(c2ccc(C(=O)NS(=O)(=O)c3ccc(N[C@H](CCN4CCOCC4)CSc4ccccc4)c(S(=O)(=O)C(F)(F)F)c3)cc2)CC1` (single isomer, unassigned) [Example 17] had an IC50 of 1 nM. In other words, the single-digit nanomolar range.
